Earlier results as cited in paper PMC4208696 (Biophysical chemistry, 2014).

Molecular target: full-length CaM
Conditions: read-out: Kd (ITC, apo), ref [46]; cited from earlier work

For CSCC[C@H](NC(=O)[C@H](CCCNC(=N)N)NC(=O)[C@H](Cc1ccccc1)NC(=O)[C@H](CS)NC(=O)[C@H](C)NC(=O)[C@@H](NC(=O)[C@@H](NC(=O)[C@H](C)NC(=O)[C@H](CCCNC(=N)N)NC(=O)[C@H](CCCNC(=N)N)NC(=O)[C@H](CCCNC(=N)N)NC(=O)[C@H](CCC(N)=O)NC(=O)[C@H](CCCCN)NC(=O)[C@H](CO)NC(=O)[C@H](CC(C)C)NC(=O)[C@H](CC(C)C)NC(=O)[C@H](CCCCN)NC(=O)[C@H](Cc1c[nH]cn1)NC(=O)[C@H](Cc1c[nH]c2ccccc12)NC(=O)[C@@H](NC(=O)[C@H](C)NC(=O)[C@H](CCCCN)NC(=O)[C@H](CCCCN)NC(=O)[C@H](CO)NC(=O)[C@H](CCCCN)NC(C)=O)C(C)C)C(C)C)C(C)C)C(=O)N[C@H](C(=O)N1CCC[C@H]1C(=O)N[C@@H](CC(C)C)C(=O)N[C@@H](Cc1ccc(O)cc1)C(=O)N[C@@H](CC(N)=O)C(N)=O)[C@@H](C)O [hRyR1(3614–3643)p], which Kd is on record?
The Kd was 46.5 µM.
